In ChEMBL document CHEMBL3112506, “Synthesis and structure-activity relationship studies of 4-((2-hydroxy-3-methoxybenzyl)amino)benzenesulfonamide derivatives as potent and selective inhibitors of 12-lipoxygenase” (J Med Chem, 2014) one finds IC50 and half-life data, which are given here for four compounds.

By IC50 is commonly meant the concentration at which inhibition is half-maximal. As a reminder, the half-life is the time needed for the level to fall by half in the phase considered. Low values mean rapid decline, high ones slow decline.

The target in data set [1] is T1, Polyunsaturated fatty acid lipoxygenase ALOX15 (Homo sapiens, UniProt P16050).
T1 sequence (P16050 whole entry): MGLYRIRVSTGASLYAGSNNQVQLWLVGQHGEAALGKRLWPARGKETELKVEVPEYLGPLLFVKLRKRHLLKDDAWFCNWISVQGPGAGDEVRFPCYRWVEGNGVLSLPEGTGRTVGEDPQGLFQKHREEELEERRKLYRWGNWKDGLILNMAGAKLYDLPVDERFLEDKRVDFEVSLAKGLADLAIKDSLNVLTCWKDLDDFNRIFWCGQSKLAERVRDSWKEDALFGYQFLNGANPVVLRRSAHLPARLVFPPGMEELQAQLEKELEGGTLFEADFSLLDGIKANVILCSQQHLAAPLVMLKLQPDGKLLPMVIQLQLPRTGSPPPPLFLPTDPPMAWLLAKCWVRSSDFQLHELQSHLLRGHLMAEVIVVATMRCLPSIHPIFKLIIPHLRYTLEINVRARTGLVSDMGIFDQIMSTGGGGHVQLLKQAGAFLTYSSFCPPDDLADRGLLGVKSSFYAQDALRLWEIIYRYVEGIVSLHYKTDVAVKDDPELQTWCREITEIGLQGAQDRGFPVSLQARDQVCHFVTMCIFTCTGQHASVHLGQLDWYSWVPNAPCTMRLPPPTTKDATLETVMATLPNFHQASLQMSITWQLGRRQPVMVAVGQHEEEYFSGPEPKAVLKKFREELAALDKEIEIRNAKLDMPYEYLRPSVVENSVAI

Data set [2] can be described thus: in vitro. The following applies: rat, liver microsomes. (Liver microsomes are vesicles of endoplasmic reticulum, rich in cytochrome P450 enzymes.)

`COc1cccc(CNc2ccc(S(=O)(=O)Nc3nc4ccc(F)cc4s3)cc2)c1O` returned an IC50 in data set [1] of 4.5 µM. `COc1cccc(CNc2ccc(S(=O)(=O)Nc3ccccc3)cc2)c1O` showed an IC50 in data set [1] of 7.6 µM. In data set [2], `COc1cccc(CNc2ccc(S(=O)(=O)Nc3nc4ccccc4s3)cc2)c1O` [VLX-1005] gave a half-life of 8 min. Turning to `COc1ccc2nc(NS(=O)(=O)c3ccc(NCc4cccc(OC)c4O)cc3)sc2c1`, the IC50 in data set [1] was determined as 5.1 µM.
